Columns and labels:
Assay in all cases: biochemical
Settings in all cases: read-out: % remaining activity
ACVR1B = ACVR1B (Homo sapiens, UniProt P36896)
NEK4 = NEK4 (Homo sapiens, UniProt P51957)
GRK1 = GRK1 (Homo sapiens, UniProt Q15835)
CK1g3 = biological target: T1, CK1g3 (Homo sapiens, UniProt Q9Y6M4)
T1 construct: gene CSNK1G3

Protein sequences, listed by entry. Tags and fused reporters are not part of them. Lines headed by an entry give the natural chain unless they say otherwise; changes in a name come on top.
UniProt Q9Y6M4: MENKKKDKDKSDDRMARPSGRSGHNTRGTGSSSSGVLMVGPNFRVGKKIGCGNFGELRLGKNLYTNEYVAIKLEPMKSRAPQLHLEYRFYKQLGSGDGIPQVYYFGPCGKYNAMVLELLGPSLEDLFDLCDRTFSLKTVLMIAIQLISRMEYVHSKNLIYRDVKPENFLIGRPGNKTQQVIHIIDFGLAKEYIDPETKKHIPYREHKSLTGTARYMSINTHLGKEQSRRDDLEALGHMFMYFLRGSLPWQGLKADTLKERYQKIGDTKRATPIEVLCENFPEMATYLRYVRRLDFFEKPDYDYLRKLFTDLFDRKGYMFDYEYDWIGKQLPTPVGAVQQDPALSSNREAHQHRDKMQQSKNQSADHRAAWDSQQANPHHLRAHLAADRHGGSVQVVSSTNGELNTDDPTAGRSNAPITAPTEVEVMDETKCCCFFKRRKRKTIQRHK
UniProt Q13188: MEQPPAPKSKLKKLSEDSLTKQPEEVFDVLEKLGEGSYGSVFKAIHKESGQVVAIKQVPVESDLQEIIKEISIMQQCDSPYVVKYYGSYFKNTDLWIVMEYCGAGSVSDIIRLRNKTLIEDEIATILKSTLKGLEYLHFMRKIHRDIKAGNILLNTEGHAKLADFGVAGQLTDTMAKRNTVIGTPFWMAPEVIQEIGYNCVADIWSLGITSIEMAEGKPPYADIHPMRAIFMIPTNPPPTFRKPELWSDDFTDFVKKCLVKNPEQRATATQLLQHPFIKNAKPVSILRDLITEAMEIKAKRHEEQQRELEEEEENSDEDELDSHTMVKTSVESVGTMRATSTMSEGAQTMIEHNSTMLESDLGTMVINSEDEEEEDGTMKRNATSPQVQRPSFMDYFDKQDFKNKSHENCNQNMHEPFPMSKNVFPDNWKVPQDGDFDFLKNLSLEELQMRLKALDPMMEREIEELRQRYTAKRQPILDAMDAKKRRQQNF
UniProt Q8N568: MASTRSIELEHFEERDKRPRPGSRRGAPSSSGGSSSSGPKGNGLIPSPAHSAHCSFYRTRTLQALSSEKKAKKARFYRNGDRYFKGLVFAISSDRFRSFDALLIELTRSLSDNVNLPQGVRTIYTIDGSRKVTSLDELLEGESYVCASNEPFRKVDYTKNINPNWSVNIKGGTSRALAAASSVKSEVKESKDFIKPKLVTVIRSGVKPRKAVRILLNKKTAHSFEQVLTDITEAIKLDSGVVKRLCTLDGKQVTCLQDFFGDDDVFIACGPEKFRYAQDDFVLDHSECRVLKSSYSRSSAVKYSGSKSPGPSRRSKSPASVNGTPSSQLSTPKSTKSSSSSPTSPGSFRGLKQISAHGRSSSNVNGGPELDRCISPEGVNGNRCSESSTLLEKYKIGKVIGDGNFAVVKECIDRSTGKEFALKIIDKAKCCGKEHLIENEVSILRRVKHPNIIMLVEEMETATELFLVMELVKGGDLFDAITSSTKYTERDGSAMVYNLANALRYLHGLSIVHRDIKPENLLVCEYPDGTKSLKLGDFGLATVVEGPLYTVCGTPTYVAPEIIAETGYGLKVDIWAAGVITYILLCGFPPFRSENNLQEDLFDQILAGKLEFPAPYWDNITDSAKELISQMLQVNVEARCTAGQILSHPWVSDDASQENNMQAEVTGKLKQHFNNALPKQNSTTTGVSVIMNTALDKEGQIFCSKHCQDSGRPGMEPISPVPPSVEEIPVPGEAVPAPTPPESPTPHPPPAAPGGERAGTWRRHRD
UniProt Q05655: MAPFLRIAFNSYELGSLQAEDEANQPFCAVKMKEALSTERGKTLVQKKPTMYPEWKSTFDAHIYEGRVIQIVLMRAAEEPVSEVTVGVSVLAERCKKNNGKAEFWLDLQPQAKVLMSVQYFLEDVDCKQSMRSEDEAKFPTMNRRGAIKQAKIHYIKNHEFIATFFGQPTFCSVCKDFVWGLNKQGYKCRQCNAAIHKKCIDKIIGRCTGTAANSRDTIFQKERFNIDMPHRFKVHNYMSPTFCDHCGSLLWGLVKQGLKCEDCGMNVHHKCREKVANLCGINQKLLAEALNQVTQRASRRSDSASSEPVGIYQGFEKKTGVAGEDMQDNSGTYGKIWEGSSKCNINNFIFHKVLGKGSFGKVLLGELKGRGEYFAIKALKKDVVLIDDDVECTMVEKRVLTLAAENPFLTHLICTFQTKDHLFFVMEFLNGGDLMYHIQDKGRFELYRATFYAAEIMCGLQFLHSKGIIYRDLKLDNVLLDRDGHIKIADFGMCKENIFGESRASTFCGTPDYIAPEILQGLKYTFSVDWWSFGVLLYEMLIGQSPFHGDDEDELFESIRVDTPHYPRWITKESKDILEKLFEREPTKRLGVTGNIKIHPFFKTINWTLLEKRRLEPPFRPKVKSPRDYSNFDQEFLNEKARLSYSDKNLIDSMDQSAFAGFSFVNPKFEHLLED
UniProt Q15759, whole entry: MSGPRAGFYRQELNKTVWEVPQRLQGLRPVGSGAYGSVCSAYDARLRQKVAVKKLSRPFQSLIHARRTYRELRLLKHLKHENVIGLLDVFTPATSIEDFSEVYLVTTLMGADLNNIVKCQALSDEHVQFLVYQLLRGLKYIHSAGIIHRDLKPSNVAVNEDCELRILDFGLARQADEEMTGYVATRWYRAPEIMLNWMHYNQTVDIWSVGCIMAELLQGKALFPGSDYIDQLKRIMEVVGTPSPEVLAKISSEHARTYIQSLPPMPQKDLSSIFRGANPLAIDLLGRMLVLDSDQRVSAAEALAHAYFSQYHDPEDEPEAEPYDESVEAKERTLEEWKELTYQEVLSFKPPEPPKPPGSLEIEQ
UniProt P42681: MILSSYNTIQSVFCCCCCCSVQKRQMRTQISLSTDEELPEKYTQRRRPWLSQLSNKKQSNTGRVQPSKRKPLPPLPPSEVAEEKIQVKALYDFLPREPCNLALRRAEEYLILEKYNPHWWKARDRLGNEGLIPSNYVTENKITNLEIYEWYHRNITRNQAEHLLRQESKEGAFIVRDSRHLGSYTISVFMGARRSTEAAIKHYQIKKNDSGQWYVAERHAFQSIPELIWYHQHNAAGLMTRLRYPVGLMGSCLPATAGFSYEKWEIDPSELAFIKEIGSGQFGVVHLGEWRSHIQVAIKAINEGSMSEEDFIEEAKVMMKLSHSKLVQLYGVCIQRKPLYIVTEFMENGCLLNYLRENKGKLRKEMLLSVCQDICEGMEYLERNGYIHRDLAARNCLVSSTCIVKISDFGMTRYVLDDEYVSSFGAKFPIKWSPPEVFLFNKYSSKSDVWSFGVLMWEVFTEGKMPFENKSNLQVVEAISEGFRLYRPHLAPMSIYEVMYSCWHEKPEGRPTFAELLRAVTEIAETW
UniProt P49759: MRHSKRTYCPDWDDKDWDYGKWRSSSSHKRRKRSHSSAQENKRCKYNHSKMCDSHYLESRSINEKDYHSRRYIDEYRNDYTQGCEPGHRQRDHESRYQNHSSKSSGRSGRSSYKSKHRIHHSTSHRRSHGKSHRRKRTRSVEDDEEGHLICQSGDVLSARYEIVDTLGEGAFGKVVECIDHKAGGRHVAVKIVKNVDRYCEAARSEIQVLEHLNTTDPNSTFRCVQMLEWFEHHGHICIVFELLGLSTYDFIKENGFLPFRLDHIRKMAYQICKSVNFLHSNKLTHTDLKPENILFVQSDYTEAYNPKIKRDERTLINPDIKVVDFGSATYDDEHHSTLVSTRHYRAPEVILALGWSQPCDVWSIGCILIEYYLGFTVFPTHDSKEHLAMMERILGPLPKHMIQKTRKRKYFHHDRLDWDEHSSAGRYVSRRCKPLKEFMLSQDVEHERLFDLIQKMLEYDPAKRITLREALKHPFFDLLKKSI
UniProt O75676: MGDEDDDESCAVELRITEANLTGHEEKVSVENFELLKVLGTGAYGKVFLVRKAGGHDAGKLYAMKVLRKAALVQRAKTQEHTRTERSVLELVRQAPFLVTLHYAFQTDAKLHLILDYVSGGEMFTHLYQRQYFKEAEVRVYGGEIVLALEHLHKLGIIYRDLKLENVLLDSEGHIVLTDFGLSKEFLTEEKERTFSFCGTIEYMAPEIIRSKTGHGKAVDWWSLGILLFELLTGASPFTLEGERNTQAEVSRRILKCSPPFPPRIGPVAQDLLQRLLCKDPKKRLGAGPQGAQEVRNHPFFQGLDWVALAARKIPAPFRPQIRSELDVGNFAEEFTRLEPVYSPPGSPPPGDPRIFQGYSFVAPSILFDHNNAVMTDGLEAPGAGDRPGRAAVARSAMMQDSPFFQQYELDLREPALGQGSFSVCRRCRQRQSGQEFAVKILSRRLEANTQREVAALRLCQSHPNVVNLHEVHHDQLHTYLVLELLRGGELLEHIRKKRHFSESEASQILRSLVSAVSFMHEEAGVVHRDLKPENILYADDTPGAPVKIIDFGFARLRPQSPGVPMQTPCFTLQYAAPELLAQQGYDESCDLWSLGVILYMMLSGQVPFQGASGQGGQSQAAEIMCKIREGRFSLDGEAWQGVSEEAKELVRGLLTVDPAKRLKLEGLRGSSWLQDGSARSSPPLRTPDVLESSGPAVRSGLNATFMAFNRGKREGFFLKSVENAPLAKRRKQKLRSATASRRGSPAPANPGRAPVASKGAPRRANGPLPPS
UniProt P57059: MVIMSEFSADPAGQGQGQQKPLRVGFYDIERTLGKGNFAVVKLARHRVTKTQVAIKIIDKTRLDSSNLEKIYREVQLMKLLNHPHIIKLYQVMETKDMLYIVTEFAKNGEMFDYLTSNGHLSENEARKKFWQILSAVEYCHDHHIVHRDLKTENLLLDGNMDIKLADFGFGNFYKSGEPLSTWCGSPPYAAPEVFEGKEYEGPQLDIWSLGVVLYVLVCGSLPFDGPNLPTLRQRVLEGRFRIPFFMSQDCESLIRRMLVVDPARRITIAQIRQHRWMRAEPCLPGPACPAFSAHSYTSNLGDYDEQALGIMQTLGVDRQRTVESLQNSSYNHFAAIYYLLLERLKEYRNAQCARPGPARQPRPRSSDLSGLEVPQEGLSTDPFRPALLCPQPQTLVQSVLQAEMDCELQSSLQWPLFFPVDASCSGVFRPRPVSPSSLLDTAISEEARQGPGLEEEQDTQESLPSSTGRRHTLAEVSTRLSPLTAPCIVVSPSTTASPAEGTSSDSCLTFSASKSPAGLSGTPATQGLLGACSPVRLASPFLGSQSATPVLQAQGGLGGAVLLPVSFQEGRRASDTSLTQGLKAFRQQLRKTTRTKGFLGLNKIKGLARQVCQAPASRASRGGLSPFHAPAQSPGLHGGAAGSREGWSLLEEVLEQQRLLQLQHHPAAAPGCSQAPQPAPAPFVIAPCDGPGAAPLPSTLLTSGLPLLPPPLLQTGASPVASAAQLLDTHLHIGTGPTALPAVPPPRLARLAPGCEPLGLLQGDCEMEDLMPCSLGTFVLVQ
UniProt Q09013: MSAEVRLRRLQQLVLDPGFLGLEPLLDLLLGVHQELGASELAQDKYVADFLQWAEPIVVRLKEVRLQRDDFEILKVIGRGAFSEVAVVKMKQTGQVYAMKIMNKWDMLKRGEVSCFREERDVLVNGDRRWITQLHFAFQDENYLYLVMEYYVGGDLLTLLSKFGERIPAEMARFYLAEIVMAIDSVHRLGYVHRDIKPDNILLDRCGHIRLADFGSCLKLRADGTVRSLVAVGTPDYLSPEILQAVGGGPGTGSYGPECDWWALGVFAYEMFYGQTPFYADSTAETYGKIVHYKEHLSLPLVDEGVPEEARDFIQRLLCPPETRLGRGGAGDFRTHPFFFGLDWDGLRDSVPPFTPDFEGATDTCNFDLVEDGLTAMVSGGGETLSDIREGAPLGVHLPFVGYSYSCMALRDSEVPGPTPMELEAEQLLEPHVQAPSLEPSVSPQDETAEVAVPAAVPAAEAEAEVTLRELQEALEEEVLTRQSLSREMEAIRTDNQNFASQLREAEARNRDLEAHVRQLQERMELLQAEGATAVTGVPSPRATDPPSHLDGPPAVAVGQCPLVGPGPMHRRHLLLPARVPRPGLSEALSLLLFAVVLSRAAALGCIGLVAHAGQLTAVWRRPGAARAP
UniProt Q16539, whole entry: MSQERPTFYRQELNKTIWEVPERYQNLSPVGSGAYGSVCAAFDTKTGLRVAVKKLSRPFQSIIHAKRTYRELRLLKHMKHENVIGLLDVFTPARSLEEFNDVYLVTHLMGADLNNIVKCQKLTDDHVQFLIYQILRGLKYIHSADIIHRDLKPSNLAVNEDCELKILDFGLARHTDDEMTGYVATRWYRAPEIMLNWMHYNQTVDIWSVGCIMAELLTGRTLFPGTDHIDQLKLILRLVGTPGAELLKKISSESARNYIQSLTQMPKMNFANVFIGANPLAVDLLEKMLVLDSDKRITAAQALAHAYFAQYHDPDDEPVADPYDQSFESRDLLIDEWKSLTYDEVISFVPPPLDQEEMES

EPHA3 = EPHA3 (Homo sapiens, UniProt P29320)
MST2 = biological target: T2, MST2 (Homo sapiens, UniProt Q13188)
T2 construct: gene STK3

MSSK1 = biological target: T3, MSSK1 (Homo sapiens, UniProt Q9UPE1)
T3 construct: gene SRPK3

ACVR1 = ACVR1 (Homo sapiens, UniProt Q04771)
DCAMKL2 = biological target: T4, DCAMKL2 (Homo sapiens, UniProt Q8N568)
T4 construct: gene DCLK2

JNK1 = biological target: T5, JNK1 (Homo sapiens, UniProt P45983)
T5 construct: gene MAPK8

PKCd = biological target: T6, PKCd (Homo sapiens, UniProt Q05655)
T6 construct: gene PRKCD

FYN = FYN (Homo sapiens, UniProt P06241)
AKT2 = AKT2 (Homo sapiens, UniProt P31751)
CK2a = biological target: T7, CK2a (Homo sapiens, UniProt P68400)
T7 construct: gene CSNK2A1

SRC = SRC (Homo sapiens, UniProt P12931)
p38-beta = biological target: T8, p38-beta (Homo sapiens, UniProt Q15759)
T8 construct: gene MAPK11

ERBB4 = ERBB4 (Homo sapiens, UniProt Q15303)
TXK = TXK (Homo sapiens, UniProt P42681)
CDK16/cyclin Y = CDK16/cyclin Y (Homo sapiens, UniProt Q00536)
CLK1 = CLK1 (Homo sapiens, UniProt P49759)
TLK1 = TLK1 (Homo sapiens, UniProt Q9UKI8)
MYLK3 = MYLK3 (Homo sapiens, UniProt Q32MK0)
RPS6KA4 = RPS6KA4 (Homo sapiens, UniProt O75676)
STK32C = STK32C (Homo sapiens, UniProt Q86UX6)
SIK1 = SIK1 (Homo sapiens, UniProt P57059)
JNK2 = biological target: T9, JNK2 (Homo sapiens, UniProt P45984)
T9 construct: gene MAPK9

EPHA6 = EPHA6 (Homo sapiens, UniProt Q9UF33)
ULK1 = ULK1 (Homo sapiens, UniProt O75385)
LATS2 = LATS2 (Homo sapiens, UniProt Q9NRM7)
DMPK = DMPK (Homo sapiens, UniProt Q09013)
MELK = MELK (Homo sapiens, UniProt Q14680)
INSRR = INSRR (Homo sapiens, UniProt P14616)
CDK6/cyclin D1 = CDK6/cyclin D1 (Homo sapiens, UniProt Q00534)
BMX = BMX (Homo sapiens, UniProt P51813)
STK16 = STK16 (Homo sapiens, UniProt O75716)
p38-alpha = biological target: T10, p38-alpha (Homo sapiens, UniProt Q16539)
T10 construct: gene MAPK14

- remaining activity at 1 µM (ACVR1B): 90.9%
- remaining activity at 1 µM (NEK4): 103%
- remaining activity at 1 µM (GRK1): 104%
- remaining activity at 1 µM (CK1g3): 98.2%
- remaining activity at 1 µM (EPHA3): 105%
- remaining activity at 1 µM (MST2): 97.4%
- remaining activity at 1 µM (MSSK1): 94.9%
- remaining activity at 1 µM (ACVR1): 106%
- remaining activity at 1 µM (DCAMKL2): 102%
- remaining activity at 1 µM (JNK1): 106%
- remaining activity at 1 µM (PKCd): 97.8%
- remaining activity at 1 µM (FYN): 2.3%
- remaining activity at 1 µM (AKT2): 101%
- remaining activity at 1 µM (CK2a): 92.8%
- remaining activity at 1 µM (SRC): 0.1%
- remaining activity at 1 µM (p38-beta): 97.4%
- remaining activity at 1 µM (ERBB4): 4.5%
- remaining activity at 1 µM (TXK): 9.1%
- remaining activity at 1 µM (CDK16/cyclin Y): 90.4%
- remaining activity at 1 µM (CLK1): 100%
- remaining activity at 1 µM (TLK1): 97.3%
- remaining activity at 1 µM (MYLK3): 101%
- remaining activity at 1 µM (RPS6KA4): 99.2%
- remaining activity at 1 µM (STK32C): 116%
- remaining activity at 1 µM (SIK1): 98.9%
- remaining activity at 1 µM (JNK2): 104%
- remaining activity at 1 µM (EPHA6): 100%
- remaining activity at 1 µM (ULK1): 93.9%
- remaining activity at 1 µM (LATS2): 89%
- remaining activity at 1 µM (DMPK): 105%
- remaining activity at 1 µM (MELK): 92.5%
- remaining activity at 1 µM (INSRR): 101%
- remaining activity at 1 µM (CDK6/cyclin D1): 105%
- remaining activity at 1 µM (BMX): 2.8%
- remaining activity at 1 µM (STK16): 95.7%
- remaining activity at 1 µM (p38-alpha): 97.5%
Compound: COc1cc(-c2nn(CCN3CCC(N(C)C)CC3)c3ncnc(N)c23)ccc1NC(=O)OC(C)(C)C [eCF506]

From article PMC7611940, “A Conformation Selective Mode of Inhibiting SRC Improves Drug Efficacy and Tolerability” (Cancer Research, 2021)
